Assay results as given in ChEMBL document CHEMBL1138434, “Reversal of fluconazole resistance in multidrug efflux-resistant fungi by the Dysidea arenaria sponge sterol 9alpha,11alpha-epoxycholest-7-ene-3beta,5alpha,6alpha,19-tetrol 6-acetate” (J Nat Prod, 2003).
Active and inactive are the calls of the source.

Experiments:
[1] = tested on: Saccharomyces cerevisiae; conditions: DSY 416, 30 uM
[2] = tested on: Saccharomyces cerevisiae; conditions: DSY 390, 30 uM
[3] = tested on: Saccharomyces cerevisiae; conditions: DSY 426, 30 uM
[4] = tested on: Saccharomyces cerevisiae; conditions: DSY 415, 30 uM
[5] = tested on: Saccharomyces cerevisiae; conditions: DSY 417, 30 uM

Measured: MIC

CC(=O)O[C@H]1C=C2[C@@H]3CC[C@H]([C@H](C)CCCC(C)C)[C@@]3(C)C[C@@H]3O[C@@]23[C@@]2(CO)CC[C@H](O)C[C@]12O
inactive: all assays above
